The list shows a part of the results, in another mix than the full data. Calls of active or inactive are those of the source.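 Rule for the calls: active = inhibition above the mean inhibition across all screened compounds plus 3 SD (cut at about 44% in these data); inactive = the rest.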

This assay can be described thus: IL-6 driven STAT3 reporter inhibitors, primary screen, U3A cells, luciferase, luminescence, MLSCN library (AID 862).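 Note: 0% = DMSO only wells and 100% = 100 µM nifuroxazide control wells.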 Conditions: IL-6 STAT3-luciferase reporter, at 5.5 µM, active compounds read high, host cell line lacks STAT1. Background: A reporter such as luciferase makes a cellular process visible.
The inhibition is the relative decrease from the control value, in per cent. As to `CCOC(=O)NC(Sc1ccccc1)C(Cl)(Cl)Cl` (centres undefined), the inhibition is inactive: 7.3%.

As to `c1ccc(-c2nn[nH]n2)c(-c2nn[nH]n2)c1`, the inhibition is inactive: 5.7%.

Consider `CCNC(=S)/N=C(\N)N[N+](=O)[O-]`, for which the inhibition is inactive: -1.4%.

As for `O=C(NC1CCS(=O)(=O)C1)NP(=S)(Oc1ccccc1)Oc1ccccc1` (centres undefined), the inhibition is inactive: 8.3%.

`O=c1c2cc([N+](=O)[O-])ccc2[nH]c2c([N+](=O)[O-])cc([N+](=O)[O-])cc12`: the inhibition was active: 59.5%.

`CCC(=O)N1C2C3N(C(=O)CC)C1C1N(C(=O)CC)C(C(N1C(=O)CC)N3C(=O)CC)N2C(=O)CC`: the inhibition is inactive: 6.9%.

As to `CC(=O)NC(SC(=S)N(CC(C)C)CC(C)C)C(Cl)(Cl)Cl` (centres undefined), the inhibition is inactive: -7.3%.

Take `Cc1ccc(OP(=O)(Nc2ccccn2)Oc2ccc(C)cc2)cc1`: the inhibition is inactive: -2.1%.

Take `COC(=O)c1cc2c(s1)N=C(c1ccccc1)N(C)P2(=O)N1CCOCC1` (centres undefined): the inhibition is inactive: -5.7%.

Turning to `CC(C)(C)C(=O)NC(Sc1ccccc1)C(Cl)(Cl)Cl` (centres undefined), the inhibition is inactive: 2.6%.

As to `CCOc1ccc(C2=NCC(CBr)S2)cc1` (centres undefined), the inhibition is inactive: 8.7%.

For `O=P1(Nc2nc3ccc(Cl)cc3s2)COc2ccccc2O1` (centres undefined), the inhibition is inactive: 8.1%.

For the compound `CC(=O)Nc1ccc(Oc2c([N+](=O)[O-])cc([N+](=O)[O-])cc2[N+](=O)[O-])cc1`, the inhibition is inactive: 10.6%.

As for `c1nnnn1CCn1cnnn1`, the inhibition was inactive: 9.3%.

Turning to `CC(C)C(=O)NC(Sc1ccccc1)C(Cl)(Cl)Cl` (centres undefined), the inhibition is inactive: -5.3%.

Consider `O=P(Nc1nccs1)(c1ccccc1)c1ccccc1`, for which the inhibition is inactive: -1.9%.

For `O=P(Nc1ccccn1)(c1ccc(Br)cc1)c1ccc(Br)cc1`, the inhibition was inactive: 0.2%.

As to `O=C(OC1CN2CCC1CC2)c1cccc(Cl)c1` (centres undefined), the inhibition was inactive: 5.8%.

Take `C(Cc1nn[nH]n1)Cc1nn[nH]n1`: the inhibition was inactive: 18.7%.

In the case of `CC(=O)NC(SC(=S)N(C)C)C(Cl)(Cl)Cl` (centres undefined), the inhibition is inactive: 1.4%.

`O=[N+]([O-])c1ncn(CCn2ncnc2[N+](=O)[O-])n1`: the inhibition was inactive: 10.2%.

Regarding `CCc1nc2c(n1)c1c(non1O)c1c2no[n+]1[O-]`, the inhibition was inactive: 17.6%.

In the case of `O=[N+]([O-])c1cc([N+](=O)[O-])c(CCNc2ccccc2)c([N+](=O)[O-])c1`, the inhibition is inactive: 37.7%.

Turning to `Cc1ccc(NP(=O)(Oc2ccccc2)Oc2ccccc2)nc1`, the inhibition is inactive: -3.9%.

Regarding `O=[N+]([O-])c1cccc2n[nH]nc12`, the inhibition was inactive: -5.4%.

For `CC(=O)N1C2C3N(C(C)=O)C1C1N(C(C)=O)C(C(N1C(C)=O)N3C(C)=O)N2C(C)=O`, the inhibition was inactive: 2.8%.

With `COc1ccc(C2=NCC(CBr)S2)cc1` (centres undefined), the inhibition is inactive: -3.8%.

As to `CC1CCN(C(=O)Oc2c(Cl)cc(Cl)c3cccnc23)CC1`, the inhibition is inactive: 8.4%.

Take `CN(C)C(=O)OCCc1n(C)cc[n+]1C`: the inhibition is inactive: -3.9%.

Turning to `CC(C)=N/N=C(\N)N[N+](=O)[O-]`, the inhibition was inactive: 2.3%.

Consider `CCN(/C(=N/P(=O)(N1CCOCC1)N1CCOCC1)N1CCOCC1)c1ccc(OC)cc1`, for which the inhibition is inactive: 13.2%.

In the case of `Clc1ccc(Cl)c(NC2=NCC(CBr)S2)c1` (centres undefined), the inhibition is inactive: 11.8%.

Regarding `CN1CCCC(OC(=O)C(c2ccccc2)c2ccccc2)C1` (centres undefined), the inhibition is inactive: -8.5%.

For `COc1ccccc1OP(=O)(Nc1ccc(C)cn1)Oc1ccccc1OC`, the inhibition was inactive: -8.4%.

Turning to `Cc1ccc(N/C(=N/P(=O)(N2CCOCC2)N2CCOCC2)N2CCOCC2)cc1`, the inhibition was inactive: -6.1%.

With `NC(=O)c1cc([N+](=O)[O-])cc([N+](=O)[O-])c1N`, the inhibition was inactive: 4.9%.

Regarding `Cc1c2non([O-])c-2c(C)[n+](=O)[n+]1[O-]`, the inhibition is inactive: 6%.

As for `O=C(NC(Sc1ccncn1)C(Cl)(Cl)Cl)c1ccccc1` (centres undefined), the inhibition is inactive: -6.5%.

For `Oc1ccccc1CNc1ccccn1`, the inhibition was inactive: -4.1%.

For the compound `CC(C)CC(=O)NC(Sc1ccc(Cl)cc1)C(Cl)(Cl)Cl` (centres undefined), the inhibition is inactive: -7.4%.

As for `CCOP(=O)(Nc1ccccc1)OCC`, the inhibition is inactive: 5.8%.

For `Cc1cc(SC(NC(=O)c2ccc(F)cc2)C(Cl)(Cl)Cl)ncn1` (centres undefined), the inhibition was inactive: -4.5%.

Turning to `CCN(N=Nc1nonc1N)c1nonc1N`, the inhibition is inactive: -1.9%.

Take `Cc1ccc2nc3c(c(C)c2c1)CC(C(Cl)Cl)S3` (centres undefined): the inhibition is inactive: 16.7%.

As to `O=[N+]([O-])c1cc([N+](=O)[O-])c(-c2ccn[nH]2)s1`, the inhibition was inactive: 3%.

As to `CCN(CC)C(=S)SC(NC=O)C(Cl)(Cl)Cl` (centres undefined), the inhibition is inactive: 14.7%.

Regarding `CC(C)NC(=O)NP(=O)(Oc1ccccc1)Oc1ccccc1`, the inhibition is inactive: -3%.

Take `ClCCSc1nnc(-c2cccnc2)o1`: the inhibition is inactive: -3.4%.

As for `COc1ccc2nc(NP(=O)(c3ccccc3)c3ccccc3)sc2c1`, the inhibition is inactive: -3.6%.

In the case of `Cc1c2c(nc3ccccc13)SC(C(Cl)Cl)C2` (centres undefined), the inhibition is inactive: 28%.

In the case of `Cc1cc(=O)[nH]c(N[N+](=O)[O-])n1`, the inhibition is inactive: 0%.

Turning to `O=C(OC1CN2CCC1CC2)C12CC3CC(CC(C3)C1)C2` (centres undefined), the inhibition is inactive: -19.2%.

In the case of `COc1ccc(N/C(=N/P(=O)(N2CCOCC2)N2CCOCC2)N2CCOCC2)cc1`, the inhibition is inactive: 8.1%.

For the compound `O=C(COc1ccccc1)OC1CN2CCC1CC2` (centres undefined), the inhibition is inactive: 4.9%.

Consider `COP1(=S)c2c(C)nn(CCC#N)c2N=C(c2ccc(F)cc2)N1C` (centres undefined), for which the inhibition is inactive: 0.7%.

As for `CCC(C)N(CC(C)C)C(=S)SC(NC(C)=O)C(Cl)(Cl)Cl` (centres undefined), the inhibition was inactive: 4.7%.

With `Cc1cc(SC(NC(=O)c2ccccc2)C(Cl)(Cl)Cl)nc(C(C)C)n1` (centres undefined), the inhibition was inactive: 4.4%.

In the case of `O=P(Nc1ccccn1)(c1cccc2ccccc12)c1cccc2ccccc12`, the inhibition was inactive: -2.4%.

Take `Cc1cc(SC(NC=O)C(Cl)(Cl)Cl)ncn1` (centres undefined): the inhibition was inactive: -2.1%.

Consider `CN(C)C1(CNC(=O)c2ccc(S(C)(=O)=O)cc2)CCCCC1`, for which the inhibition is inactive: 0.8%.

Turning to `CC1CCC(C(C)C)C(OP(=O)(Nc2ccccn2)c2ccccc2)C1` (centres undefined), the inhibition is inactive: -3.5%.

On to `Cc1nn(-c2ccccc2)c2c1P(=O)(N1CCOCC1)N(C)C(c1ccccc1)=N2` (centres undefined), for which the inhibition was inactive: 11.7%.

As to `O=P1(Nc2ccc(Br)cn2)COc2ccccc2OC1`, the inhibition was inactive: 12.9%.

As to `Cc1ccc(OCC(=O)OC2CN3CCC2CC3)cc1` (centres undefined), the inhibition is inactive: -7.7%.

As for `O=P1(Nc2ncccn2)COc2ccccc2OC1`, the inhibition is inactive: 1.4%.

For the compound `Clc1n[nH]nc1-c1nn[nH][15n]1`, the inhibition is inactive: 4.6%.

In the case of `O=P1(Nc2ccccn2)COc2ccccc2OC1`, the inhibition is inactive: -3.3%.

Turning to `CC(C)/C=N\N=C(\N)N[N+](=O)[O-]`, the inhibition was inactive: 6.8%.

In the case of `CC1(CBr)Cn2c(nc3ccccc3c2=O)S1` (centres undefined), the inhibition was inactive: 10.5%.

Take `Cc1cccc(OCC(=O)OC2CN3CCC2CC3)c1` (centres undefined): the inhibition is inactive: 8%.

Regarding `COc1cc(C(=O)NCC2(N3CCOCC3)CCCCC2)cc(Cl)c1OC(C)C`, the inhibition is inactive: -17.2%.

Turning to `CCOP(=O)(Nc1cccc2ccccc12)OCC`, the inhibition is inactive: -3.6%.

As for `COc1cc(C2NCCC3(OCCO3)C2(C)C)cc(OC)c1OC` (centres undefined), the inhibition was inactive: 9.7%.

For the compound `Cc1ccc(NCCc2c([N+](=O)[O-])cc([N+](=O)[O-])cc2[N+](=O)[O-])cc1`, the inhibition is inactive: 16.1%.

As for `O=P(Nc1nccs1)(c1ccccc1)c1nc2ccccc2s1` (centres undefined), the inhibition was inactive: -9.6%.

Turning to `O=P(Nc1nccs1)(Oc1ccccc1)Oc1ccccc1`, the inhibition was inactive: 24.2%.

As to `CCOP1(=S)c2c(C)nn(CCC#N)c2N=C(c2ccccc2F)N1C` (centres undefined), the inhibition is inactive: -4.1%.

`CCOP1(=S)c2c(C)nn(CCC#N)c2N=C(c2ccc(F)cc2)N1C` (centres undefined): the inhibition is inactive: -1.3%.

On to `O=[N+]([O-])c1ccc2c(c1)nnn2O`, for which the inhibition was inactive: 0.6%.

(Values after PubChem BioAssay AID862 (The Scripps Research Institute Molecular Screening Center, 2007).)
